Counter-ions that a name gives are not always drawn.
Experiments:
HeLa Kyoto cells = conditions: Table S3, MTT
[1] = system: clathrin-mediated uptake of transferrin
[2] = system: DID-labelled SFV hemifusion/fusion; assay: microbe, parasite or virus in culture; type: cell-based; conditions: Semliki Forest virus, HeLa Kyoto, 40 min, read-out: Inhibition of DID-SFV de-quenching (hemifusion/fusion)

CCCCc1oc2ccccc2c1C(=O)c1cc(I)c(OCCN(CC)CC)c(I)c1 [Amiodarone, Amiodarone hydrochloride]
TC50 SFV (7h) (HeLa Kyoto cells): 96.8 mM

O=C(Nc1ccc([N+](=O)[O-])cc1Cl)c1cc(Cl)ccc1O [Niclosamide]
Transferrin internalisation compared to DMSO controls [1]: inhibit both virus and transferrin internalisation

CC(C)(C)c1cc(C=C(C#N)C#N)cc(C(C)(C)C)c1O [Tyrphostin A9]
TC50 SFV (7h) (HeLa Kyoto cells): >50 mM

O=C1c2c(O)ccc(O)c2C(=O)c2c(NCCNCCO)ccc(NCCNCCO)c21 [Mitoxantrone, Mitoxantrone dihydrochloride]
inhibition at 10 µM [2]: > 50%

— paper PMC6410080 (Viruses, 2019)
